# Laboratory results reported in patent publication US20230374087A1, “METHOD TO IMPROVE PROTEIN QUALITY CONTROL” (The Johns Hopkins University, priority 2020, published 2023).
# Legend:
# [1] = tested on: neonatal rat cardiomyocytes (NRCMs); experiment: LDH/MTT cytotoxicity assay after simulated ischemia (SI); details: NRCMs infected with adenovirus expressing the CHIP variant, SI 48 hours, compared to CHIP-WT
# ubiquitinated proteins = experiment: Western blot of ubiquitinated proteins in NRCMs after SI; format: cell-based, rat; details: adenovirus CHIP variant, SI 48 hours, compared to CHIP-WT
# Experimental: Tissue and cultured cardiomyocytes were lysed in 1× lysis buffer (Cell Signaling Technology), protein concentration was measured by bicinchoninic acid assay (Pierce), and extracts were subjected to SDS-PAGE using Novex Tris-Glycine Gels (4-20% gradient gel, Life Technologies) or Mini-protean TGX Gels (4-20% gradient gel, Bio-Rad), transferred to nitrocellulose membranes, and probed with various primary antibodies (CHIP (#2080S), Hsc70 (#8444S), p-CHIP S20 (Custom antibody, AbMart Inc., Shanghai, China; Project: 25011-1), Myc (#2276S), GAPDH (#2118S), and α-tubulin (#3878S) (Cell Signaling) and ubiquitin antibody (#SAB4503053) from Sigma), and fluorescence-labeled secondary antibodies (Licor, #926-32211, 926-32210, 926-68023, or 926-68022). Gels were imaged (Odyssey, Licor) and band intensity quantified (Odyssey Software 3.1).
molecule,measurement,setting,value
"CHIP-S20E: CHIP with serine 20 to glutamic acid phospho-mimetic substitution; recombinant protein, adenovirus-expressed, or knock-in mouse (protein, left off: small tags and cut ends, CHIP with serine 20 to glutamic acid phospho-mimetic substitution; recombinant protein, adenovirus-expressed, or knock-in mouse) MKGKEEKEGGARLGAGGGEPEKSPSAQELKEQGNRLFVGRKYPEAAACYGRVITRNPLVAVYYTNRALCYLKMQQHEQALADCRRALELDGQSVKAHFFLGQCQLEMESYDEAIANLQRAYSLAKEQRLNFGDDIPSALRIAKKKRWNSIEERRIHQESELHSYLSRLIAAERERELEECQRNHEGDEDDSHVRAQQACIEAKHDKYMADMDELFSQVDEKRKKRDIPDYLCGKISFELMREPCITPSGITYDRKDIEEHLQRVGHFDPVTRSPLTQEQLIPNLAMKEVIDAFISENGWVEDY",SI-induced cytotoxicity (LDH/MTT ratio),[1],mimicked the cytoprotection observed in CHIP-WT-expressing myocytes co-incubated with the SIL
same,ubiquitinated proteins after SI,ubiquitinated proteins,attenuated
